ChEMBL document CHEMBL3259738, “Discovery of substituted benzamides as follicle stimulating hormone receptor allosteric modulators” (Bioorg Med Chem Lett, 2014)

Columns and labels:
[1] = system: CHO; assay: Selectivity ratio of LHR (unknown origin) to human FSH receptor expressed in CHO cells; type: cell-based
[2] = system: CHO; assay: Selectivity ratio of TSHR (unknown origin) to human FSH receptor expressed in CHO cells; type: cell-based

Structure (SMILES) | Selectivity ratio [1] | Selectivity ratio [2]
Cc1ccccc1N1CCN(c2ccc(C(=O)N[C@@H]3CCC[C@@H](O)[C@H]3O)cc2NC(=O)c2coc(C3CC3)n2)CC1 | > 1000 | > 1000
Cc1ccccc1N1CCN(c2ccc(C(=O)NCCCc3nn[nH]n3)cc2NC(=O)c2coc(C3CC3)n2)CC1 | > 1000 | > 1000
